Laboratory results taken from ChEMBL document CHEMBL1671719, “Inhibition of antibiotic-resistant Staphylococcus aureus by the broad-spectrum dihydrofolate reductase inhibitor RAB1” (Antimicrob Agents Chemother, 2010).

Tests used:
[1] = system: Staphylococcus aureus; details: isolate NRS71
[2] = system: Staphylococcus aureus; details: isolate NRS123

Work on GENTAMICIN yielded an MIC [1] of 0.5 µg/mL and an MIC [2] of 0.5 µg/mL.
